Sequences of proteins named here, by UniProt entry; tags and fusion partners are left off.
UniProt P21728, whole entry: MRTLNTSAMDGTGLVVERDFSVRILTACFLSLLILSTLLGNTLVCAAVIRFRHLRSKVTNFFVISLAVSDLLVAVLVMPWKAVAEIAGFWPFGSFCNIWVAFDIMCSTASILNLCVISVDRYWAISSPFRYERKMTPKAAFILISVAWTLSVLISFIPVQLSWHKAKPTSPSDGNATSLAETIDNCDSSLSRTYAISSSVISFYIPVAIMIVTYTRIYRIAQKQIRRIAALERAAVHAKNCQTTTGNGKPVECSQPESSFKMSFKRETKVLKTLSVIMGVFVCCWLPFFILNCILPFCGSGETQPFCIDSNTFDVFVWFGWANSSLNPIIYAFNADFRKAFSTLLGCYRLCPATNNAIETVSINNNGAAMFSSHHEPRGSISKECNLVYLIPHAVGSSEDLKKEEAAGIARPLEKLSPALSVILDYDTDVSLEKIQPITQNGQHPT

According to ChEMBL document CHEMBL4390674, “Defining Structure-Functional Selectivity Relationships (SFSR) for a Class of Non-Catechol Dopamine D1 Receptor Agonists” (J Med Chem, 2019):

Experiments:
[1] = biological target: T1, D(1A) dopamine receptor (Homo sapiens, UniProt P21728); assay: Agonist activity at recombinant C-terminal RLuc8-fused human D1 receptor expressed in HEK29T cells co-expressing N-terminal Venus-tagged beta-arrestin2 assessed as increase in beta-arrestin2 recruitment measured after 15 mins in presence of coelenterazine H by BRET assay; format: cell-based
[2] = biological target: T1, D(1A) dopamine receptor; assay: Agonist activity at recombinant human D1 receptor expressed in HEK29T cells assessed as induction of stimulatory G-protein-mediated cAMP accumulation measured after 15 mins by Glosensor-based FLIPR assay; format: functional, cell-based
Procedure, shortened: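 GloSensor-22F cAMP biosensor in HEK293T cells co-expressing human D1, seeded in DMEM + 1% dialyzed FBS; next day GloSensor reagent equilibrated ≥15 min at room temperature in HBSS/20 mM HEPES pH 7.4, then drug added in HBSS/HEPES/0.1% BSA/0.01% ascorbic acid. Luminescence read after 15 min; normalized to dopamine maximum (100%); sigmoidal fit; maximum tested 10⁻⁴ M; ≥3 experiments in triplicate.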

SMILES: Cc1cc(Oc2nccn3cccc23)ccc1-c1c(C)ncc2nccn12
- EC50 [1]: 690 nM
- EC50 [2]: 0.87 nM
